Assay results: ChEMBL document CHEMBL1156281, “Reduction of hERG inhibitory activity in the 4-piperidinyl urea series of H3 antagonists” (Bioorg Med Chem Lett, 2010)
This is a selection: effects in other tests are not listed, and their absence says nothing.

How the values were obtained:
Caco-2 = assay: Permeability across human Caco-2 cells
Rattus norvegicus = assay: Half life in rat at 10 mg/kg, po; details: in vivo
[1] = Aqueous solubility at pH 7.4; details: buffer

| Compound | permeability (Caco-2) | t1/2 (Rattus norvegicus) | solubility [1] |
| --- | --- | --- | --- |
| CCN1CCC(N(C(=O)NCc2ccc(F)cc2)c2ccc(Cl)cn2)CC1 | 7.2 ×10⁻⁶ cm/s |  |  |
| O=C(NCc1ccccc1)N(c1ccc(Br)cc1)C1CCN(Cc2ccnnc2)CC1 | 26.9 ×10⁻⁶ cm/s | 1 h | > 250 µM |
| O=C(NCc1ccc(F)cc1)N(c1ccc(Br)cc1)C1CCN(C2CCCC2)CC1 | 11.6 ×10⁻⁶ cm/s |  |  |
